Assay results published in patent US8877745B2, “CCR2 receptor antagonists, method for producing the same, and use thereof as medicaments” (Boehringer Ingelheim International GmbH, priority 2010, dated 2014).

Sequences of proteins named here, by UniProt entry; tags and fusion partners are left off.
UniProt P41597, whole entry: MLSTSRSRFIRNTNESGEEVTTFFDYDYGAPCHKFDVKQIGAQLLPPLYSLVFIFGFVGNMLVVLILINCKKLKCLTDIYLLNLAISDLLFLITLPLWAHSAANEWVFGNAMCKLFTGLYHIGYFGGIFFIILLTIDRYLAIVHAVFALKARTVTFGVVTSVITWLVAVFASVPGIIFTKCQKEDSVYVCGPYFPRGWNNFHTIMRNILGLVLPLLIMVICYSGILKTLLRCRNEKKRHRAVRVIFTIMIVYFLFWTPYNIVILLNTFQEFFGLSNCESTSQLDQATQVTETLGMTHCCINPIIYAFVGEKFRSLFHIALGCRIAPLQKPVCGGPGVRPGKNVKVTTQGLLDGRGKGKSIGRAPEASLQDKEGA

Molecular target: CCR2 (Homo sapiens, UniProt P41597)
Experiment: CCR2 receptor membrane binding assay ([125I]MCP-1, THP-1 cell membranes, SPA beads)
Settings: read-out: hKi; THP-1 membranes, [125I]MCP-1, bound radioactivity determined after 8 h
Protocol: The above exemplary substances have been tested for binding to CCR2 using a binding assay as outlined herein below:
THP-1 cells (human acute monocytic leukaemia cells) were cultured under standardized conditions at 37° C. and 5% CO2 in a humidified incubator. THP-1 cells were cultivated in RPMI 1640 medium (Gibco 21875) containing 1% MEM-NEAA (Gibso 11140) 2 mM L-glutamine, 1.5 g/L sodium bicarbonate, 4.5 g/L glucose, 10 mM HEPES and 1.0 mM sodium pyruvate, 90%; 10% fetal calf serum (FCS Gibco 10500-064).
Membranes were prepared from THP-1 cells. THP-1 cells were centrifuged at 300×g at 4° C. for 10 min. The cell pellet was resuspended in Phosphate Buffer Saline (PBS, including 10 μM Pefabloc and a protease inhibitor mix ‘complete’, Boehringer Mannheim (1 tablet/50 ml)), to a concentration of […]. The membrane preparation was performed by disrupting the cells by nitrogen […] (at 50 bar, for 1 h) in a “Nitrogen Bombe” (Parr Instrument). […]
Perkin Elmer NEX 332 Jod 125 MCP-1, Stock: 2200 Ci/mmol solved in […] assay buffer, stored at −20° C. […] Bound radioactivity was determined by scintillation counter after 8 h. Determination of affinity of test compounds (dissociation constant hKi) is calculated by iterative fitting of experimental data using the “easy sys” program, which is based on law of mass action (Schittkowski K. (1994), Numerische Mathematik, Vol. 68, 129-142).

| Compound | Ki [nM] |
| --- | --- |
| Cc1c(C(=O)N2CCC(N[C@@H]3CCOC[C@@H]3F)CC2)nc(C2CC2)nc1N1CCc2ccc(C(F)(F)F)cc2C1 (relative stereo) [69t] | 2 |
| Cc1c(C(=O)N2CCC(N[C@@H]3CCOC[C@@H]3F)CC2)nc(C2CC2)nc1N1CCc2ccc(C(F)(F)F)cc2C1 (relative stereo) [69u] | 3 |
